In ChEMBL document CHEMBL3259738, “Discovery of substituted benzamides as follicle stimulating hormone receptor allosteric modulators” (Bioorg Med Chem Lett, 2014):

Key:
CHO [1] = experiment: Selectivity ratio of LHR (unknown origin) to human FSH receptor expressed in CHO cells; type: cell-based
CHO [2] = experiment: Selectivity ratio of TSHR (unknown origin) to human FSH receptor expressed in CHO cells; type: cell-based

SMILES	Selectivity ratio (CHO [1])	Selectivity ratio (CHO [2])
Cc1ccccc1N1CCN(c2ccc(C(=O)N[C@@H]3CCC[C@@H](O)[C@H]3O)cc2NC(=O)c2coc(C3CC3)n2)CC1	> 1000	> 1000
Cc1ccccc1N1CCN(c2ccc(C(=O)NCCCc3nn[nH]n3)cc2NC(=O)c2coc(C3CC3)n2)CC1	> 1000	> 1000
